Results from PubChem BioAssay AID488896 (Broad Institute, 2010).
The entries are a selection whose mix differs from that of the whole data set. Calls of active or inactive are those of the source.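 Rule for the calls: active = mean replicate inhibition of at least 70% and a set share of replicates each scoring 70 or more; inconclusive = meets just one of the two criteria; inactive = fails both criteria.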

Chains of the proteins cited; added tags and fusions are not shown.
UniProt Q61009, whole entry: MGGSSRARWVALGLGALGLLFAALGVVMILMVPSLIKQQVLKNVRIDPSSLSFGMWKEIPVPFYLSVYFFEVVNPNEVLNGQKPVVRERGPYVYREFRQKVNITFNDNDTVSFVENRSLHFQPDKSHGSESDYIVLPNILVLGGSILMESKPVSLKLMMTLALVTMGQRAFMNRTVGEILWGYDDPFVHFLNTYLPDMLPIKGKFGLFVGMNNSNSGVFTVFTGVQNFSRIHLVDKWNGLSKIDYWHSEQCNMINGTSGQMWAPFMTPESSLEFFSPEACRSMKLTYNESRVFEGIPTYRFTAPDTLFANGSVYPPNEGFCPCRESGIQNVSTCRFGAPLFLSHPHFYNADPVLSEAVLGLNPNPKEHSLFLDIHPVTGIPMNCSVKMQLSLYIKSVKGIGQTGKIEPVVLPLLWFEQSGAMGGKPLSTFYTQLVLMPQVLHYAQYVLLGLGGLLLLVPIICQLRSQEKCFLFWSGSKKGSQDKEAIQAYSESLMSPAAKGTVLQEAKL

Target: Scavenger receptor class B member 1 (Mus musculus) (UniProt Q61009)
Assay: mouse SR-BI DiI-HDL uptake blockers – ldlA[mSR-BI] cells, fluorescence, single point, primary screen (AID 488896);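 note: 0% = median of neutral control wells and 100% = median of positive control wells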
Conditions: ldlA[mSR-BI] CHO cells, 3 h, at 12.5 µM, active compounds read high

Compound	inhibition
CCC(CO)(C(=O)OC1CN2CCC1CC2)c1ccccc1 (stereo unspecified)	inactive: -20.7%
COc1cccc(C(=O)N(c2cc(C)cc(C)c2)C2CCN(C(=O)OC(C)(C)C)CC2)c1	inactive: 3.24%
COc1cc(OC)cc(C(=O)NCC2(N3CCOCC3)CCCCC2)c1	inactive: 6.24%
CN1CCC(Nc2ccc(Cl)cc2)CC1	inactive: -11.6%
CN1CCC(Nc2ccc(F)c(Cl)c2)CC1	inactive: -27.9%
CCOc1ncccc1C(=O)NCC1(N2CCOCC2)CCCCC1	inactive: -0.98%
CCCOc1ccc(C(=O)NCC2(N(C)C)CCCCC2)cc1	inactive: 8.44%
O=C(O)C1(Nc2ccccc2)CCN(Cc2ccccc2)CC1	inactive: -20.1%
CC(C)(C)OC(=O)N1CCC(Nc2ccccc2)CC1	inactive: 1.28%
CCN1CCC(Nc2cccc(F)c2)CC1	inactive: 8.36%
Cc1ccccc1NC1(C#N)CCN(Cc2ccccc2)CC1	inactive: -19.1%
CN(C)c1ccc(C(=O)NCC2(N3CCCCC3)CCCCC2)cc1	inactive: -2.96%
Cn1c(=O)[nH]cc(N(CCCl)CCCl)c1=O	inactive: -6.12%
O=C(NCC1(N2CCCCC2)CCCCC1)c1ccco1	inactive: -36.9%
CC(=O)N(c1ccccc1)C1CCNCC1	inactive: -14.8%
Cc1ccc(NC2(C#N)CCN(Cc3ccccc3)CC2)cc1	inactive: -3.93%
Fc1ccccc1NC1CCN(Cc2ccccc2)CC1	inactive: -3.95%
Cc1ccc(C(=O)NCC2(N3CCCCC3)CCCCC2)o1	inactive: -19.5%
CCCN1CCC(Nc2cc(OC)cc(OC)c2)CC1	inactive: -14.7%
Cc1cc(N(CCCl)CCCl)ccc1C=O	inactive: 28.3%
c1ccc(CN2CCC(Nc3ccccc3)CC2)cc1	inactive: 23.8%
CN(C)C1(CNC(=O)c2cccc(C#N)c2)CCCCC1	inactive: -9.98%
CC(C)(C)OC(=O)N1CCC(N(C(=O)c2ccccc2)c2ccc(Cl)cc2)CC1	inactive: 2.77%
N#Cc1ccc(C(=O)NCC2(N3CCCCC3)CCCCC2)cc1	inactive: -11.9%

Compound	inhibition
N/C(=N\O)c1c(N)no[n+]1[O-]	inactive: -9.99%
CCOC(=O)N1CCC(Nc2ccc(C)cc2)CC1	inactive: -10.4%
O=C(OC1CN2CCC1CC2)C1c2ccccc2C=Cc2ccccc21 (stereo unspecified)	inactive: -18.3%
O=C(NCC1(N2CCOCC2)CCCCC1)c1cc(Br)ccc1Cl	inactive: 6.52%
COc1cc(C(=O)NCC2(N3CCOCC3)CCCCC2)cc(OC)c1C	inactive: 32.2%
COc1ccc(C(=O)NCC2(N3CCOCC3)CCCCC2)cc1OC	inactive: -16.9%
CN1CCC(Nc2cccc(F)c2)CC1	inactive: -14.2%
O=C(NCC1(N2CCCCC2)CCCCC1)c1cncc(Br)c1	inactive: 15.9%
CCCOc1ccc(C(=O)NCC2(N(C)C)CCCCC2)cc1OC	inactive: 7.26%
CN(C)c1cccc(C(=O)NCC2(N3CCCCC3)CCCCC2)c1	inactive: -24.1%
COc1ccc(CN(CCCl)CCCl)cc1Cl	inactive: -10.1%
CC(C)c1ccc(NC2CCN(C(=O)OC(C)(C)C)CC2)cc1	inactive: 4.39%
O=C(NCC1(N2CCOCC2)CCCCC1)c1cc(F)c(F)cc1Cl	inactive: 17.2%
COc1cc(OC)c(C(=O)NCC2(N(C)C)CCCCC2)cc1OC	inactive: -20.8%
COc1ccc(NC2CCN(C(=O)OC(C)(C)C)CC2)cc1	inactive: 20.9%
CC(C)c1ccc(C(=O)NCC2(N3CCOCC3)CCCCC2)cc1	inactive: 4.72%
CN1CCN(CCOC(=O)C(O)(c2ccccc2)c2ccccc2)CC1	inactive: -19.8%
O=C(NCC1(N2CCOCC2)CCCCC1)c1cc(=O)[nH]c2ccccc12	inactive: 2.58%
COc1cc(C(=O)NCC2(N3CCCCC3)CCCCC2)ccc1OC(F)F	inactive: -1.86%
O=C(NCC1(N2CCCCC2)CCCCC1)c1ccc(OC(F)F)cc1	inactive: -2.04%
CSc1ccc(C(=O)NCC2(N3CCOCC3)CCCCC2)cc1	inactive: 5.18%
O=C(NCC1(N2CCCCC2)CCCCC1)c1cccc([N+](=O)[O-])c1	inactive: -13.3%
N#CC1(Nc2ccccc2)CCN(CCc2ccccc2)CC1	inactive: -16.7%
CCN1CCC(Nc2ccc(Cl)cc2)CC1	inactive: -7.54%

Compound	inhibition
CCOC(=O)N1CCC(Nc2cccc(C)c2)CC1	inactive: 42.5%
COc1cc(C(=O)NCC2(N(C)C)CCCCC2)ccc1OC(F)F	inactive: 4.36%
CCOc1ccc(C)cc1CN(CCCl)CCCl	inactive: 28.1%
O=C1CCN(Cc2ccccc2)CC1	inactive: -15.3%
CCOC(=O)N1CCC(Nc2ccc(F)cc2)CC1	inactive: -21.9%
COc1ccc(NC2CCN(CCc3ccccc3)CC2)c(OC)c1	inactive: -30.1%
CCCCOc1ccc(C(=O)NCC2(N3CCOCC3)CCCCC2)cc1	inactive: 15.7%
O=P1(N(CCCl)CCCl)SCCCS1	inactive: -0.261%
O=C(NCC1(N2CCCCC2)CCCCC1)c1ccc(F)cc1	inactive: -26.5%
O=C(NCC1(N2CCOCC2)CCCCC1)c1cc2ccccc2o1	inactive: 4.25%
Cc1cc(C)cc(N(C(=O)c2ccccc2)C2CCN(C(=O)OC(C)(C)C)CC2)c1	inactive: -15.4%
O=C(NCC1(N2CCCCC2)CCCCC1)c1ccc(Cl)nc1	inactive: -37.6%
CCOC(=O)N1CCC(Nc2ccc(OC)cc2)CC1	inactive: -21.6%
COc1ccc(Cl)cc1C(=O)NCC1(N2CCOCC2)CCCCC1	inactive: -4.26%
N#CC1(Nc2ccccc2)CCN(Cc2ccccc2)CC1	inactive: -17.3%
O=C(NCC1(N2CCCCC2)CCCCC1)c1ccc(Cl)s1	inactive: -2.36%
O=C(OC1CN2CCC1CC2)C1c2ccccc2Oc2ccccc21 (stereo unspecified)	inactive: 10.7%
O=C(NCC1(N2CCCCC2)CCCCC1)c1cccs1	inactive: -6.53%
O=C(NCC1(N2CCCCC2)CCCCC1)c1ccc(=O)[nH]c1	inactive: -6.22%
COc1ccc(C(=O)NCC2(N3CCCCC3)CCCCC2)c(OC)c1OC	inactive: 0.242%
COc1ccc(C(=O)NCC2(N3CCCCC3)CCCCC2)cc1	inactive: -7.64%
Cc1cccc(NC2(C#N)CCN(Cc3ccccc3)CC2)c1	inactive: -12.1%
CSc1ccccc1C(=O)NCC1(N2CCCCC2)CCCCC1	inactive: -19.6%
